# In patent EP0701444B1, “METHODS AND COMPOSITIONS FOR INDUCING SLEEP” (Purdue Pharma Ltd., priority 1993, dated 1994):
# Test system: rats
# Test: Rat sleep-wake bioassay (EEG, EMG, locomotor activity, body temperature)
# Type: in vivo, Wistar rats
# Conditions: administered at CT-18
# Description: Rats are a suitable model for human sleep because all compounds that are hypnotics in man have hypnotic effects in rats and vice versa. Edgar, D.M. "Drug Discovery and Evaluation Using the Advanced Technology Sleep-Wake Bioassay Laboratory at Stanford University" p. 4, December 1992. In addition, the rat model for human sleep has been accepted by peer-review committees at NIH Id. at 5. Furthermore, rat sleep and human sleep are fundamentally the same. Id. at 4. For example, the proportion of time spent in NREM versus REM sleep is about 4:1 in both rats and humans. Id. at 5.
# Rat preparation, monitoring, and analysis of the data was conducted as described below. […] Body temperature and locomotor activity were monitored via a miniature transmitter (Minimitter) surgically placed in the abdomen. […]
# The computers monitored the EEG, EMG, body temperature and non-specific locomotor activity (LMA) via telemetry, and drinking activity from 48 rats simultaneously. […] Drinking and LMA were recorded every 10 seconds, while body temperature was recorded every minute.
# Therefore, time of treatment is important. […] By administering the drug at CT-5 when the propensity for REM sleep is greatest, the drug's effect on REM sleep can be measured more accurately. […]
structure (smiles),measurement,value
Cc1nnc2n1-c1ccc(Cl)cc1C(c1ccccc1Cl)=NC2 [Triazolam],rebound reduction of NREM sleep,showed a rebound reduction of NREM sleep
